“Also recorded” adds a separate entry of the source.

The test system of the assay is Bcl-rambo-induced cell death (caspase-3 activity) in 293T cells. Briefly: Effect of apoptosis inhibitors on apoptotic activity of full-length Bcl-rambo in 293T cells. In kind it is cell-based, human. The note with it: 27 hours, 2 μg Bcl-rambo plasmid, 0.5 μg inhibitor vector, standardized by β-galactosidase. The procedure:
The effect of different apoptosis inhibitors on the apoptotic activity of Bcl-rambo is investigated in FIG. 6. For this, 293T cells were transfected for 27 hours (shown in FIG. 6A) with 2 μg of Bcl-rambo expression plasmid and 0.5 μg of expression vectors encoding various apoptosis inhibitors, together with 0.5 μg of β-galactosidase expression vector. The following apoptosis inhibitor proteins were selected: FLIP, CrmA, cIAP-1, cIAP-2, XIAP, DN-FADD, DN-caspase 9 and Bcl-XL, and also a comparative experiment in which no vector expressing an apoptosis inhibitor was added (“none”).
293T cells (3×10^5 cells) were sown on 60 mm culture dishes on the day before the transfection and then transiently cotransfected with 2 μg of Bcl-rambo expression plasmids and 0.2 μg of EGFP expression vector (pEGFP-C1, from Clontech) or with 0.5 μg of pCMV-β-galactosidase expression vector. The postnuclear lyzates were then analyzed with regard to the fluorescence intensity of EGFP, the galactosidase activity and the caspase-3 activity using a peptide substrate (Ac-DEVD-AMC, from Alexis). In order to be able to compare the individual measurements, the caspase-3 activity (measured as the number of times it was increased by the induction) was standardized using the fluorescence intensity of EGFP or the β-galactosidase activity.

For the substance “c-IAP1: apoptosis inhibitor of the IAP family, coexpressed”, the “blocking of Bcl-rambo-induced cell death by coexpressed apoptosis inhibitor” value (“blocking … by coexpressed apoptosis inhibitor” below) was “inhibitory effect”. The “blocking … by coexpressed apoptosis inhibitor” value (listed as c-IAP-1) is listed as “act as inhibitors”.

With “xIAPs: apoptosis inhibitor of the IAP family, coexpressed”, the “blocking … by coexpressed apoptosis inhibitor” value is listed as “strong inhibitors; also recorded: inhibitory effect”.

The record behind these values is US20040115667A1, “Dna-sequences, which code for an apoptosis signal transduction protein” (priority 2000, published 2004).
